# Laboratory results as given in US8852618B2, “Insecticidal mixture containing gamma-cyhalothrin” (Syngenta Limited, priority 2001, dated 2014).
# Key:
# Heliothis virescens = assay: Sprayed cotton leaf test, mortality of 1st instar larvae after 3 days
# Method: (§1) For Heliothis and Spodoptera testing cotton leaves were sprayed in a Berkhard Potter Tower, left to dry for 1 hour and then placed on the top of pots containing twenty 1st instar Heliothis virescens/Spodoptera littoralis larvae. These were stored in a test holding room at 25° C. for 3 days and the test species assessed for mortality. For aphid testing Leaf discs were cut from excised Chinese cabbage leaves and placed on agar in test pots. R2 Myzus persicae were transferred from the culture on radish cotyledons and left overnight. The dried cotyledons were removed, leaving approximately 20-25 aphids on each leaf disc. The pots were sprayed in a Berkhard Potter Tower. Once dry, ventilated lids were placed on the top. These were stored in a Weiss Room at 20° C. for 3 days and the test species assessed for mortality. All tests included a Synperonic NP8 control. […] Any increase in the expected amount of mortality may be attributed to synergism. This is calculated in the following way: Expected mortality from mixture=% mortality of mixture partner A+(100%−% mortality of A)*(% mortality of mixture partner B). The results are set out in Tables I-III.
# Spodoptera littoralis = assay: as above
# Method: as §1
substance,measurement,setting,value
spinosad,Observed % mortality Other ai,Heliothis virescens; other ai alone 0.06 ppm,44%
same,Observed % mortality Other ai,Heliothis virescens; other ai alone 0.0625 ppm,44%
same,Observed % mortality Other ai,Heliothis virescens; other ai alone 0.13 ppm,33%
same,Observed % mortality Other ai,Heliothis virescens; other ai alone 0.25 ppm,42%
same,Observed % mortality Other ai,Spodoptera littoralis; other ai alone 0.125 ppm,0%
same,Observed % mortality Other ai,Spodoptera littoralis; other ai alone 0.25 ppm,0%
same,Observed % mortality Other ai,Spodoptera littoralis; other ai alone 0.5 ppm,29%
